Screening results as filed in PubChem.
The list is not random: actives were taken first. Their share in the collection is about 0.45%.
Yeast UUG start-1 = yeast start codon fidelity modulation | S. cerevisiae UUG-firefly luciferase reporter, luminescence/redox ratio | activity score, % at 18.7 µM | 0.13% of 350,000 active | AID 602363;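 active means replicate mean at a twofold rise or more, about +100% in these data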;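 further: firefly luciferase made from a UUG start codon reports start codon fidelity; reporter light over untreated wells divided by growth signal over untreated wells; some hits fall short of that in this replicate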
DDE Tn7 FP inh = DD(E)-Tn7 binding inhibition, primary FP screen; FP displacement of FITC-Tn7 peptide from fibrin DD(E); 0% = median of compound wells per plate; inhibition, % at 8.3 µM; actives 0.13% (n = 370,000); P02675;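 active means inhibition above the mean of compounds falling within the control limits plus 3 SD of them, cut at about 14% in these data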;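 further: 0% = plate median of compound wells and 100% = 10 µM Aha-Tn7 peptide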
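system = human fibrin DD(E) protein | quantity = DD(E) 2 µM final | medium = Tris/NaCl/CaCl2 buffer, pH 7.8 | also added = labelled Tn7 tracer, 0.1 µM | compound dosing = single point at 8.3 µM | timing = compound with protein 10 min, then 3 h after probe, room temperature | signal = FP measurement | benchmarks = Aha-Tn7 high control | repeats = one replicate per compound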
Tn6 DDE FP = disrupts Tn6 cyclic peptide binding to fibrin D-Dimer-E complex; P02675; Fibrin DD(E) TRITC-Tn6 fluorescence polarization displacement; inhibition, % at 8.3 µM; actives 0.21% (n = 370,000);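 active means inhibition above a per-campaign cutoff: mean of compounds within control limits plus 3 SD, cut at about 15% in these data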;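 further: 0% = median of all compound wells on the plate and 100% = blocking peptide control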
PglD DTNB = blocks C. jejuni PglD acetyltransferase activity; actives 0.098% (n = 360,000); inhibition, % at 12.5 µM; purified PglD enzyme, DTNB colorimetric CoA detection; in the data active means inhibition above about 16%, passing the limit was not always enough
Yeast UUG start-2 = modulators of start codon recognition fidelity in yeast; shares compounds with Yeast UUG start-1; S. cerevisiae UUG-start firefly luciferase, luminescence, 4 h; 100% means double the DMSO signal; activation, % at 38 µM; 540 tested, under 10 active;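 active means signal increase whose fitted curve reaches an absolute level of 40 at a concentration under 10 µM; inactive means activity opposite to the expected increase, or the rest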
PglD confirm = PglD (C. jejuni) inhibition confirmation; shares compounds with PglD DTNB; inhibition, % at 20 µM; 320 tested, under 10 active; Purified C. jejuni PglD, DTNB absorbance 412 nm;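 active means mean inhibition across replicates of at least 20% with every single replicate also at 20% or more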;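 further: initial rate of CoA release by acetyl transfer from AcCoA to the UDP-4-amino sugar; 0% = median of neutral control wells and 100% = median of positive control wells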
Tn7 DDE conf = confirmation of inhibitors of Tn7 binding to human fibrin DD(E). AID 720628. FP displacement of TRITC-Tn7 peptide from DD(E); 0% set at plate's compound-well median. shares compounds with DDE Tn7 FP inh. inhibition, % at 8.3 µM. actives 5% (n = 460);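 active means inhibition above the campaign cutoff, the mean of compounds within control limits plus 3 SD, cut at about 14% in these data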;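 further: 100% = median FP of high control wells holding Aha-Tn7 inhibitor peptide; displacers lower polarization since freed probe rises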
DDE Tn7 FP ctr = DD(E)-Tn7 binding inhibition, counter-screen; actives 3% (n = 460); fibrin DD(E), TRITC-Tn7 probe displacement, fluorescence polarization; shares compounds with DDE Tn7 FP inh; inhibition, % at 8.3 µM;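 active means inhibition above the cutoff, the mean of compounds lying between the control bounds plus 3 SD of those compounds, cut at about 17% in these data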;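 further: 0% = median of compound sample wells and 100% = excess unlabeled Aha-Tn7 peptide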
DDE Tn6 FP ctr = counter-screen for inhibitors of Tn6 peptide binding to fibrin DD(E). TRITC-Tn6 fluorescence polarization displacement; 0% = median of compound wells, not DMSO. shares compounds with Tn6 DDE FP. actives 2% (n = 680). inhibition, % at 8.3 µM;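 active means inhibition above the mean of test compounds lying between the control limits plus 3 SD of those, cut at about 14% in these data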;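 further: 0% = median of compound wells and 100% = wells with Aha-Tn7 blocking peptide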
Tn6 DDE conf = confirmation of inhibitors of Tn6 binding to human fibrin DD(E); shares compounds with Tn6 DDE FP; FP displacement of TRITC-Tn6 peptide from DD(E); 0% = per-plate median of test wells; inhibition, % at 8.3 µM; actives 10% (n = 680); AID 720631;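 active means inhibition above the mean of compounds lying within the control limits plus 3 SD, cut at about 16% in these data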;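 further: 100% = high control wells holding a competing inhibitor peptide at 10 µM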
Numbers without * were called inactive; / = no result; + = active, no number.

SMILES	Yeast UUG start-1	DDE Tn7 FP inh	Tn6 DDE FP	PglD DTNB	others
c1ccc2c(c1)[IH]c1ccccc1-2	151*	0	-4	-5
CCC(=O)N1[C@@H]2Cn3c(ccc(-c4cccc(F)c4)c3=O)[C@H]1[C@@H](C(=O)OC)[C@@H]2CO	/	/	/	0
CC[n+]1c(-c2ccccc2)c2cc(N)ccc2c2ccc(N)cc21	/	6	56*	/
O=C(O)[C@@H]1[C@@H](CO)[C@@H]2Cn3c(ccc(-c4cccnc4)c3=O)[C@H]1N2S(=O)(=O)c1ccccc1F	/	/	/	-3
O=C(c1ccccc1)c1cn(CC(=O)N2CCOCC2)c2ccccc12	2	-2	1	-1	Yeast UUG start-2=-6
CC[n+]1c(/C=C/C=C/c2ccc(N(C)C)cc2)sc2ccccc21	100*	-2	73*	4	Yeast UUG start-2=1
CN(C)c1ccc(/C=C/C=C/c2sc3ccccc3[n+]2C)cc1	15	-4	14	-3
COC(=O)[C@H]1[C@H](CO)[C@H]2Cn3c(ccc(-c4ccccc4F)c3=O)[C@@H]1N2CC1CCCC1	/	/	/	0
Cc1cc(C)cc(N2C(=O)/C(=C\c3ccc(N4CCN(C)CC4)o3)C(=O)NC2=S)c1	19	-6	-6	76*	PglD confirm=-1
CCCNS(=O)(=O)c1ccc(OCC(=O)N2CCN(Cc3ccc4c(c3)OCO4)CC2)cc1	-20	4	2	29*	PglD confirm=8
CCCNS(=O)(=O)c1ccc(OCC(=O)N2CCN(Cc3ccc4c(c3)OCO4)CC2)c(C)c1	/	7	6	/
COC(=O)C[C@@H]1CC[C@H]2NC[C@@H](O)COC[C@@H]2O1	/	/	/	6
COc1ccc2c3c([nH]c2c1)C(C)=NCC3	-18	-3	-1	1
CC1=NCCc2c1[nH]c1cc(O)ccc21	-17	76*	1	-3	Tn7 DDE conf=35*;DDE Tn7 FP ctr=-3
COC(=O)[C@H]1[C@H](CO)[C@H]2Cn3c(ccc(-c4ccncc4)c3=O)[C@@H]1N2S(=O)(=O)c1ccccc1F	/	/	/	2
CCCCC12CNCC(C)(CNC1)C2=O	1	17*	-3	-6	Tn7 DDE conf=-8;DDE Tn7 FP ctr=-13
COC(=O)[C@H]1[C@H](CO)[C@H]2Cn3c(cccc3=O)[C@@H]1N2C(=O)C1CCCC1	16	/	/	3
CCCCOc1nc2ccccc2c(=O)n1-c1ccccc1	-7	15*	4	1	Tn7 DDE conf=6;DDE Tn7 FP ctr=-3
O=c1[nH]c(=S)n(C2CC2)c(O)c1C=Nc1cccc(C(F)(F)F)c1	-26	14*	2	-1	Tn7 DDE conf=-5;DDE Tn7 FP ctr=-14
CCOC(=O)[C@]12Cc3c(cc(OC)c(OC)c3OC)[C@H]1N(C)C(=O)c1cc(OC)ccc12	/	15*	2	/	Tn7 DDE conf=11;DDE Tn7 FP ctr=6
COC(=O)[C@H]1[C@H](CO)[C@H]2Cn3c(ccc(-c4ccc(F)cc4)c3=O)[C@@H]1N2Cc1cccnc1	/	/	/	5
COc1ccccc1-n1c(-c2ccccc2Cl)nc2ccccc2c1=O	-5	16*	-1	5	Tn7 DDE conf=7;DDE Tn7 FP ctr=8
COc1ccccc1-n1c(-c2ccoc2)nc2ccccc2c1=O	-9	4	-3	9
COc1ccc(-c2ccc([C@@H]3[C@@H](CO)N4CCCCN(C(=O)Cc5ccccc5)C[C@H]34)cc2)cc1	-5	/	/	0
COc1ccc2[nH]c(C)c(CCNCc3cccnc3)c2c1	-19	18*	6	-3	Tn7 DDE conf=6;DDE Tn7 FP ctr=-3
COc1ccc2[nH]cc(CCNCc3cccnc3)c2c1	-4	-1	-9	-5
CC1CCCN(c2ccc(C(=O)N3CCC4(CC3)OCCO4)cc2[N+](=O)[O-])C1 (centres undefined)	-12	6	-3	14
CCOC(=O)C1CCCN(c2ccc([N+](=O)[O-])c3nonc23)C1 (centres undefined)	/	20*	+	/	Tn7 DDE conf=-13;DDE Tn7 FP ctr=93*;DDE Tn6 FP ctr=-13;Tn6 DDE conf=93*
COC1C(C)OC(OC2CC(C)(O)Cc3cc4c(c(O)c32)C(=O)c2c(O)cc3c(c2C4=O)OC2OC3(C)C(O)C(N(C)C)C2O)C(OC)C1(C)OC (centres undefined)	/	14*	88*	/	Tn7 DDE conf=-19;DDE Tn7 FP ctr=54*;DDE Tn6 FP ctr=-19;Tn6 DDE conf=54*
COC(=O)[C@@H]1[C@@H](CO)[C@@H]2Cn3c(ccc(-c4cccc(OC)c4)c3=O)[C@H]1N2C(=O)c1ccccc1F	/	/	/	-1

Arranged by molar mass (smallest number first): part of the list above.
SMILES	Yeast UUG start-1	DDE Tn7 FP inh	Tn6 DDE FP	PglD DTNB	others
COc1ccc2[nH]c(C)c(CCNCc3cccnc3)c2c1	-19	18*	6	-3	Tn7 DDE conf=6;DDE Tn7 FP ctr=-3
COc1ccccc1-n1c(-c2ccoc2)nc2ccccc2c1=O	-9	4	-3	9
CCOC(=O)C1CCCN(c2ccc([N+](=O)[O-])c3nonc23)C1 (centres undefined)	/	20*	+	/	Tn7 DDE conf=-13;DDE Tn7 FP ctr=93*;DDE Tn6 FP ctr=-13;Tn6 DDE conf=93*
COC(=O)[C@H]1[C@H](CO)[C@H]2Cn3c(ccc(-c4ccc(F)cc4)c3=O)[C@@H]1N2Cc1cccnc1	/	/	/	5
COc1ccc(-c2ccc([C@@H]3[C@@H](CO)N4CCCCN(C(=O)Cc5ccccc5)C[C@H]34)cc2)cc1	-5	/	/	0
COC(=O)[C@@H]1[C@@H](CO)[C@@H]2Cn3c(ccc(-c4cccc(OC)c4)c3=O)[C@H]1N2C(=O)c1ccccc1F	/	/	/	-1

Further results follow:
SMILES	Yeast UUG start-1	DDE Tn7 FP inh	Tn6 DDE FP	PglD DTNB	others
Cc1ccc(/C=C2\C(=O)NC(=S)N(c3ccccc3F)C2=O)s1	/	2	20*	/	DDE Tn6 FP ctr=-5;Tn6 DDE conf=-29
Cc1ccc(/C=C2\C(=O)NC(=S)N(c3ccc(F)cc3)C2=O)s1	/	3	1	/
C[C@]12CCC3C(CC[C@H]4C[C@@H](O)CC[C@]34C)C1C[C@@H](O)[C@]2(C)O (some centres undefined)	0	-5	-8	-3
C[C@]12CCC3C(CC[C@H]4C[C@@H](O)CC[C@]34C)C1CC[C@@]2(O)C(F)(F)F (some centres undefined)	5	3	16*	0	DDE Tn6 FP ctr=4;Tn6 DDE conf=4
CCC(C#N)(CC)P(=S)(c1ccccc1)c1ccccc1	/	6	16*	/	DDE Tn6 FP ctr=0;Tn6 DDE conf=-1
N#Cc1cccc(-c2ccc([C@H]3[C@H](CO)N4CCCCN(C(=O)Cc5cccnc5)C[C@@H]34)cc2)c1	4	/	/	2
CN(C)c1ccc(/C=C/c2cc[n+](C)c3ccccc23)cc1	/	-4	30*	/	DDE Tn6 FP ctr=8;Tn6 DDE conf=11
CC(C)CC#Cc1ccc([C@H]2[C@H](CO)N3CCCCN(C(=O)Cc4ccccn4)C[C@@H]23)cc1	14	/	/	3
